Our source for the IC50 values is patent publication US7754866B2 (Arena Pharmaceuticals, Inc., priority 1997, dated 2010).

Chains of the proteins cited; added tags and fusions are not shown. Residues count along the entry.
UniProt P28223, whole entry T25N/H452Y: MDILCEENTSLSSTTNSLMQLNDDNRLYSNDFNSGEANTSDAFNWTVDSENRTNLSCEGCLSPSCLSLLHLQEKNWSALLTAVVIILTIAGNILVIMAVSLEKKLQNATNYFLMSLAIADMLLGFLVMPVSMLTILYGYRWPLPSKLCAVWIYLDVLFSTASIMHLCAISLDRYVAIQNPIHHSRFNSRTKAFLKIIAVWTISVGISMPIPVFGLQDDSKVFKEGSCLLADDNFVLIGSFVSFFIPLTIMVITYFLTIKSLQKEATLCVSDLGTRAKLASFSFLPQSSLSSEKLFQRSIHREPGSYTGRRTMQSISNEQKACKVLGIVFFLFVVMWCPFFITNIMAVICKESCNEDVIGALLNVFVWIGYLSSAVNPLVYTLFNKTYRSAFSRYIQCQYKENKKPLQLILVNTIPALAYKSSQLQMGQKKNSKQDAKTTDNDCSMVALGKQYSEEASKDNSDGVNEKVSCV
UniProt P28223, whole entry T25N, looked up: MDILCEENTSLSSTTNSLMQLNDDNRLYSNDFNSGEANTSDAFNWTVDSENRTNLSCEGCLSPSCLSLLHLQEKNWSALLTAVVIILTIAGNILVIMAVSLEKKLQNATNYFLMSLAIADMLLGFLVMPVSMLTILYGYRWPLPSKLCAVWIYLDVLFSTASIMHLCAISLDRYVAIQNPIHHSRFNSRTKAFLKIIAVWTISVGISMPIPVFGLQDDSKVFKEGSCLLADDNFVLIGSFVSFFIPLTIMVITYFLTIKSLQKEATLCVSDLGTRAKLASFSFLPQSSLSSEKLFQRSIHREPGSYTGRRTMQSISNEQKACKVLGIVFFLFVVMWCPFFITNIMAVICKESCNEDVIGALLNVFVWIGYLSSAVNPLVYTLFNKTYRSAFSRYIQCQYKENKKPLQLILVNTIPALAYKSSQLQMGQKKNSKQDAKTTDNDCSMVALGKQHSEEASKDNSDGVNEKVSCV
UniProt P28335, 33-458 S310K: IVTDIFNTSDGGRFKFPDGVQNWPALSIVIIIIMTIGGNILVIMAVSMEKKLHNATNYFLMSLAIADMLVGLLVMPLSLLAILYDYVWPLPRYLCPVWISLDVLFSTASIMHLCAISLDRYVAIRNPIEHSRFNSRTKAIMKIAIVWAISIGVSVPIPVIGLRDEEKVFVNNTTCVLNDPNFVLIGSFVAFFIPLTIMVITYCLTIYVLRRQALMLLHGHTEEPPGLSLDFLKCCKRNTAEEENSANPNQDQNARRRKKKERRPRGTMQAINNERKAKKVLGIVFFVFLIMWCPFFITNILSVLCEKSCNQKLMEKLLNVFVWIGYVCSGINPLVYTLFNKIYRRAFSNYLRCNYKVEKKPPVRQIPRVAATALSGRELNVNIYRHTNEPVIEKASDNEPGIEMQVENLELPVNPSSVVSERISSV

Structures are written as SMILES. pIC50: −log10 of the molar value.

Test [1] concerns the target T1, wild type human 5HT2A receptor (Homo sapiens, UniProt P28223).
T1 construct: expressed in transfected cells; host or cells: COS-7 cells, pCMV vector
The experiment in a line: Competitive binding assay, [3H]LSD, WT 5HT2A. Conditions: 1 nM [3H]LSD, COS7 membranes. How it is done:
Membranes were prepared from transfected COS-7 cells (see Example 2) by homogenization in 20 mM HEPES and 10 mM EDTA, pH 7.4 and centrifuged at 49,000×g for 15 min. The pellet was resuspended in 20 mM HEPES and 0.1 mM EDTA, pH 7.4, homogenized for 10 sec. using a Polytron homogenizer (Brinkman) at 5000 rpm and centrifuged at 49,000×g for 15 min. The final pellet was resuspended in 20 mM HEPES and 10 mM MgCl2, pH 7.4, homogenized for 10 sec. using polytron homogenizer (Brinkman) at 5000 rpm.
Assays were performed in triplicate 200 μl volumes in 96 well plates. […] LSD assays were incubated for 1 Hr at 37° C., while mesulergine assays were incubated for 1 Hr at room temperature. Assays were terminated by rapid filtration onto Wallac Filtermat Type B with ice cold binding buffer using Skatron cell harvester. The radioactivity was determined in a Wallac 1205 BetaPlate counter.
The final assay ingredients comprised assay buffer (20 mM HEPES and 10 mM MgCl2), 1 nM [^3H]LSD, and 50 μg of the above-defined membranes (COS7 with AP-1). […] Incubations were performed for 1 Hour at 37° C. Receptor bound radioligand was resolved from free radioligand by rapid filtration of the assay mixture over a Wallac Filtermat™ Type B filter, followed by washing with ice-cold assay buffer using a Skatron™ cell harvester. Radioactivity was counted using a Wallac 1205 BetaPlate™ counter. Each assay plate contained five negative control wells (membranes expressing receptor and no candidate compound addition) and three positive control wells (containing 100 μM mianserin). For one concentration tests, candidate compounds were diluted into assay buffer and screened at a final concentration of 10 μM in triplicate. For IC50 determinations, candidate compounds were diluted in assay buffer and eight different concentrations were evaluated in triplicate.
WT 5HT2A LSD IC50 nM: The values in this column reflect a competitive binding assay using LSD. This column corresponds to the column appearing in the tables above which is labeled: Competitive Binding, WT 5HT2A, ([^3H]LSD), IC50 Value (μM).

In test [2] the target is T2, human mutated 5HT2A receptor, AP-3 (Homo sapiens, UniProt P28223, T25N).
T2 construct: Inositol Phosphate Accumulation AP-3 IC50 Value (nM); other: several concentrations; IP3 % of Control; other: one concentration of 10 μM, triplicate; control without test compound
In words: Inositol phosphate accumulation assay, AP-3.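 Further: transfected 293 cells prelabeled with 3H-inositol, exposed to compound 120 min at 37 °C with LiCl and pargyline, inositol trisphosphates isolated by anion exchange and counted by scintillation.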 It counts as cell-based. How it is done: Candidate compound identified in the assays of Examples 9a-9c were then evaluated for inositol phosphate accumulation, following the protocol of Example 5 (COS7 cells expressing human mutated 5HT2A receptor, AP-3), modified as follows: tube A was prepared by mixing 16 μg DNA (e.g., pCMV vector; pCMV vector AP-1 cDNA, etc.) in 1.0 ml serum free DMEM (Irvine Scientific, Irvine, Calif.); tube B was prepared by mixing 60 μl lipofectamine (Gibco BRL) in 1.0 ml serum free DMEM. Tubes A and B were then admixed by inversions (several times), followed by incubation at room temperature for 30 min. The admixture is referred to as the “transfection mixture”. Plated 293 cells were washed with 10 ml Serum Free DMEM, followed by addition of 11 ml Serum Free DMEM. […] On day 3, cells were trypsinized and counted, followed by plating of 1×10^6 cells/well (12-well plates). […]
IP3% Control: The values in this column reflect an IP Accumulation Assay where the test compounds were evaluated at one concentration of 10 μM. […] The percent control value was calculated based on the control in which no test compound was added.
IP3 AP-3 IC50 mM: The values in this column reflect an IP accumulation assay in which the test compound was evaluated at several different concentrations whereby an IC50 could be determined. […]

For test [3], the target named is constitutively active mutant human 5HT2C receptor AP-1 (Homo sapiens, UniProt P28335, S310K). The experiment in a line: [35S]GTPγS binding assay with membranes of COS7 cells expressing AP-1. (Binding of GTPγS marks nucleotide exchange on a G protein.)

With `Cn1cc(Br)c(-c2cccc(NC(=O)c3cccs3)c2)n1` [Compound 116102, N-[3-(4-bromo-1-methylpyrazol-3-yl)phenyl][2-thienyl]carboxamide], the negative-log IC50 (pIC50) in test [1] was 6.77.

For `Cn1cc(Br)c(-c2cccc(NC(=O)NCc3ccc(OC(F)(F)F)cc3)c2)n1` [Compound 116115], the results for the pIC50 in test [1] and in test [2] were 6.35 and 7.77, respectively.

`Cn1cc(Br)c(-c2cccc(NC(=O)c3ccc(Cl)cc3)c2)n1` [Compound 116120, N-[3-(4-bromo-1-methylpyrazol-3-yl)phenyl][4-chlorophenyl]carboxamide]: the pIC50 was 6.68 in test [1] and 7.50 in test [2].

With `CN1C[C@@H](NS(=O)(=O)N(C)C)C[C@@H]2c3cccc4c3c(cn4C)C[C@H]21` [Mesulergine], the pIC50 in test [3] is 7.67.

By pIC50 is commonly meant the IC50 on a negative log10 scale, so that one unit is a factor of ten.
